US20250154219A1, “PEPTIDE ANALOGS” (Adepthera LLC, priority 2017, published 2025)
Read-outs that look alike come from different tables or passages of the source.

Target: type 1 angiotensin II receptor AGTR1 (Homo sapiens, UniProt P30556)
Experiment: AGTR1 calcium flux assay, antagonist mode
Type: cell-based

For telmisartan [reference compound], the IC50 was 0.6 nM, the “AGTR1 Max Activity (IC50 column pair)” value (antagonist) was 100 % of positive controls and the IC50 (listed as telmisartan) was 0.62 nM.
